Test results as given in PubChem BioAssay (Tox21).
The list shows a part of the results, in another mix than the full data. Records with an inconclusive call do not appear. Activity calls are given as the source filed them. Calls come from the whole dose curve.

Test: p53 small molecule agonists, cell-based qHTS assay: qHTS cell viability counter screen (AID 1963581); note: nearly all actives have a fitted effect of over 45% in size
Settings: p53RE-bla HCT-116 viability, ATP luminescence, 16 h; series mostly up to 66 µM; activity change, negative = cytotoxicity: at the top concentration
Source text: National Center for Advancing Translational Sciences [NCATS]
Division of Preclinical Innovation [DPI]
U.S. Environmental Protection Agency [EPA]
National Institutes of Environmental Health Sciences [NIEHS]
National Toxicology Program [NTP]
U.S. Food and Drug Administration [FDA]
p53, a tumor suppressor protein, is activated following cellular insult, including DNA damage and other cellular stresses. The activation of p53 regulates cell fate by inducing DNA repair, cell cycle arrest, apoptosis, or cellular senescence. The activation of p53, therefore, is a good indicator of DNA damage and other cellular stresses. The CellSensor p53RE-bla HCT-116 cell line (Invitrogen) contains a stably integrated beta-lactamase reporter gene under control of the p53 response elements. The activation of the reporter gene under culture conditions can be detected by fluorescence intensity. This cell line was used to screen the Tox21 compound library in a 1536-well plate format and to identify agonists that activate the p53 signaling pathway. The cytotoxicity of the Tox21 compound library against the p53 RE-bla HCT-116 cell line was tested in parallel by measuring the intra cellular ATP content in the same wells.
Tox21 Assay Protocol Summary:
The p53RE-bla cells were dispensed at 4,000 cells/5 ul/well in 1536-well black wall/clear bottom plates using a Multidrop dispenser. After the assay plates were incubated at a 37 C/5% CO2 incubator for 5 hours, 23 nL of compounds dissolved in DMSO, positive controls or DMSO only was transferred to the assay plate by a pin tool. The plates were incubated at 37 C for 16 hours. After 1 uL of LiveBLAzerTM B/G FRET substrate was added using a Flying Reagent Dispenser, the plates were incubated at room temperature for 2 hours, and fluorescence intensity was measured by an Envision plate reader. For cell viability readout that measures cytotoxicity, 4 ul/well of CellTiter-Glo reagent was added into the assay plates using a Flying Reagent Dispenser. After 30 min incubation at room temperature, the luminescence intensity in the plates was measured using a ViewLux plate reader.
% is set by controls: 0 for no effect and ±100 for the full control effect; potency is the fitted concentration of half-maximal effect.

Compound | activity change, negative = cytotoxicity | Potency
O=[p+]1oc2ccccc2c2ccccc21 (stereo unspecified) | inactive: 6.67% | 
CCCCO[P+](=O)OCCCC |  | inactive
Cc1cc([N+](=O)[O-])c(O)c([N+](=O)[O-])c1 | inactive: 0% | 
ClP(Cl)c1ccccc1 | inactive: 1.73% | 
CN(C(=O)Cc1ccccc1)[C@H]1CC[C@@]2(CCCO2)C[C@@H]1N1CCCC1 | inactive: 3.7% [at 30.3 µM] | 
CCC(C)(OOC(C)(C)C)OOC(C)(C)C | inactive: 2.41% [at 13.5 µM] | 
CCCCOP(OCCCC)OCCCC | inactive: -0.791% | 
CCCCC(CC)CO[P+](=O)OCC(CC)CCCC (stereo unspecified) | inactive: 18.6% | 
CC(C)OP(=S)(OC(C)C)SCCNS(=O)(=O)c1ccccc1 | inactive: 15.8% | 
CN(C(=O)Cc1ccc(Cl)c(Cl)c1)[C@H]1CC[C@@]2(CCCO2)C[C@@H]1N1CCCC1 | inactive: -13% [at 30.3 µM] | 
O=P(Cl)(Oc1ccccc1)Oc1ccccc1 | inactive: 5.01% | 
NC(=O)Nc1ccc([As](=O)(O)O)cc1 |  | inactive
CN(C(=O)Cc1cccc2occc12)[C@H]1CC[C@@]2(CCCO2)C[C@@H]1N1CCCC1 | inactive: -7.69% | 
CCOC(=O)Cl | inactive: -0.784% | 
CC(C)CCCCCCCOP(OCCCCCCCC(C)C)Oc1ccccc1 | inactive: -1.07% | 
COP(=S)(Cl)OC | inactive: 7.9% | 
CCOP(=S)(CC)Sc1ccccc1 (stereo unspecified) | inactive: 6.98% | 
O=[N+]([O-])c1ccc(S(=O)(=O)O)c([N+](=O)[O-])c1 | inactive: -4.63% | 
CN(N=O)C(=N)N[N+](=O)[O-] | inactive: 9.75% | 
O=C(Cl)OCCOC(=O)Cl | inactive: 7.2% | 
O=[N+]([O-])c1ccc([N+](=O)[O-])cc1 | inactive: 21.8% | 
CCCCCCCCCCCCCC[P+](CCCCCC)(CCCCCC)CCCCCC |  | active: 11.5 µM
Cc1cc([N+](=O)[O-])cc([N+](=O)[O-])c1O |  | inactive
O=[P+](Oc1ccccc1)Oc1ccccc1 | inactive: 15.3% | 
O=C(Cl)Oc1ccccc1 | inactive: 11% | 
O=P(Cl)(Cl)c1ccccc1 | inactive: 5.5% | 
